Apparent affinities of Ab-14 variants for a coronavirus HR2 peptide

From the AlphaSeq antibody data of Li et al. 2023 (doi:10.1038/s41467-023-39022-2), copy in the FLAb collection.

All variants were tested on one target, the spike HR2 peptide PDVDLGDISGINAS (SARS-CoV-2).

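This is the validation round: designs drawn from the data on random variants, tested in the same kind of assay. Their group label is 14L_En_Gen (En: ensemble of fine-tuned language models; Gen: genetic algorithm). The scFvs were displayed on barcoded MATa yeast, the peptide on MATalpha yeast. After mating in shaken culture at 30 °C for 16 h, diploids were selected and their barcode pairs sequenced. A regression on co-assayed BCL2-family reference pairs converts the normalised counts of each replicate to an apparent Kd. Each pool was mated in six replicate cultures.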

Parent scFv Ab-14: VH joined to VL by a 15-residue (Gly4Ser)3 linker. Changes lie in the light chain CDRs alone.
VH: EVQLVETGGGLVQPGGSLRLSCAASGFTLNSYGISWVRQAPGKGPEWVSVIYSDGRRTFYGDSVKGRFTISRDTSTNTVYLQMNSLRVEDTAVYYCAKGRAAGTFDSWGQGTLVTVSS
VL: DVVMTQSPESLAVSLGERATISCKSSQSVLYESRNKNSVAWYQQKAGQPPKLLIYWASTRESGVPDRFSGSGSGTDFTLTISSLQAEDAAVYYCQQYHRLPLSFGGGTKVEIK

The whole VL of each variant is written out. Affinities are written as log10 Kd with Kd in nM; a lower number is a better binder. Where no diploid with the target was found in that replicate, the entry reads "n.d.": below detection, most likely a poor binder, though not proof of it.

VL,"replicates, log10 nM",signal with controls
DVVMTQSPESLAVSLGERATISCQISMMMNLSMHGVNNVAWYQQKAGQPPKLLIYQMETREKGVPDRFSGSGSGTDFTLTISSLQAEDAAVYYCQQYDRLPLSFGGGTKVEIK,n.d. / 2.91 / 2.32 / 1.87 / 3.03 / 3.10,1 of 18 (3.05)
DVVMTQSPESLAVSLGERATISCIIDQIMYHGNKRANSIAWYQQKAGQPPKLLIYQASERVNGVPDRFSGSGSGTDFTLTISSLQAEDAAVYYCQQYHHLPLTFGGGTKVEIK,1.24 / 1.04 / 0.75 / 0.96 / 0.99 / 1.32,0 of 18
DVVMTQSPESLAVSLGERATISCMVSQLMWWGMHAKNSIAWYQQKAGQPPKLLIYEAQMRLNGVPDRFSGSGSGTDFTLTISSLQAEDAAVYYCQQYDRLPLFFGGGTKVEIK,1.36 / 1.03 / 2.85 / 1.88 / 1.50 / 1.93,1 of 18 (2.43)
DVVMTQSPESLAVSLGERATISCKITATMRFEQKIKNNIAWYQQKAGQPPKLLIYEVSTRSKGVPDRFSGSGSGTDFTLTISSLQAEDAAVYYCQQYVRLPLAFGGGTKVEIK,1.06 / 0.58 / 0.98 / 0.81 / 1.00 / 1.17,3 of 18 (2.58)
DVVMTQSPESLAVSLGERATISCKISQMVKVGITHSNSIAWYQQKAGQPPKLLIYEMVTRANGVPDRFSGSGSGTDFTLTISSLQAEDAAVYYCQQYHRLPLAFGGGTKVEIK,0.51 / 0.06 / -0.09 / 0.05 / 0.00 / 0.21,0 of 18
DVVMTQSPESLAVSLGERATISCMMSQVTGLGQRTRNNVAWYQQKAGQPPKLLIYQTSMRETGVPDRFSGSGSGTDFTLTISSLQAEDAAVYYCQQYDRLPLIFGGGTKVEIK,0.66 / 0.40 / 0.39 / 0.32 / 0.36 / 0.67,2 of 18 (2.33)
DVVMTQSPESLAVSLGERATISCMMSQVTALGQRHRNNVAWYQQKAGQPPKLLIYQTSTREPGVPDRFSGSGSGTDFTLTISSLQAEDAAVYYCQQYDRLPLVFGGGTKVEIK,0.72 / 0.99 / 1.08 / 0.54 / 0.78 / 1.00,1 of 18 (2.18)
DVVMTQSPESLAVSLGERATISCMVTQMAMTGMMSKRSVAWYQQKAGQPPKLLIYNASTREHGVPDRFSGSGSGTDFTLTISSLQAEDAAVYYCQQYHRLPLIFGGGTKVEIK,4.08 / 1.11 / 1.02 / 1.16 / 1.35 / 1.58,1 of 18 (2.31)
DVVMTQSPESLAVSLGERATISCIISETYGNMVTKKNSIAWYQQKAGQPPKLLIYDNTTREDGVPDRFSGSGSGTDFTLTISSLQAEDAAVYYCQQYDRLPLSFGGGTKVEIK,n.d. / n.d. / n.d. / 1.87 / n.d. / 2.63,1 of 18 (2.88)
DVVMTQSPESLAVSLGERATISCMVTQMAMSGMTNKRSVAWYQQKAGQPPKLLIYNAETREDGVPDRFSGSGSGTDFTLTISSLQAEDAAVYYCQQYNRLPLIFGGGTKVEIK,1.58 / 0.43 / 0.62 / 1.34 / 1.94 / 2.09,0 of 18
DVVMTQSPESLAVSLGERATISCKISMTSENQLKNRNSVAWYQQKAGQPPKLLIYELVTRVNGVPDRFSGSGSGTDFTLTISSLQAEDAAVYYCQQYNRLPLSFGGGTKVEIK,0.43 / 0.26 / 0.26 / 0.39 / 0.46 / 0.29,1 of 18 (2.67)
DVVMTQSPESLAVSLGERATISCIVSQLMLWGMHVKNSIAWYQQKAGQPPKLLIYEAELRLNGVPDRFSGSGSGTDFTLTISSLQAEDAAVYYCQQYDRLPLIFGGGTKVEIK,n.d. / n.d. / n.d. / n.d. / n.d. / n.d.,0 of 18
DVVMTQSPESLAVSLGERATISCTISDVMGHLTRAHNNVAWYQQKAGQPPKLLIYDMDTRGEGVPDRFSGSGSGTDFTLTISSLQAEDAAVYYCQQYNRLPLSFGGGTKVEIK,-0.45 / 0.01 / -0.28 / -0.43 / -0.35 / -0.18,1 of 18 (1.33)
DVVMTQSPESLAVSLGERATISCKLSGIMRLEQKNKSNIAWYQQKAGQPPKLLIYEVNERSEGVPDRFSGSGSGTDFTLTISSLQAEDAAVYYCQQYDRLPLSFGGGTKVEIK,0.71 / 0.55 / 0.66 / 0.66 / 0.37 / 0.62,3 of 18 (2.98)
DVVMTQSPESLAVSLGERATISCKISQMVRVGATHNNSIAWYQQKAGQPPKLLIYEEATRAKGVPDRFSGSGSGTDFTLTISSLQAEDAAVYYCQQYHRLPLAFGGGTKVEIK,n.d. / 1.60 / 2.60 / 2.38 / 2.11 / 1.72,1 of 18 (1.89)
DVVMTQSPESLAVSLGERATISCMLGDVAHGLSRKENSVAWYQQKAGQPPKLLIYDNDTRNSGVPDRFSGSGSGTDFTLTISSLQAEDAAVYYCQQYDRLPLSFGGGTKVEIK,1.61 / 1.22 / 0.69 / 1.03 / 1.57 / 0.70,1 of 18 (2.78)
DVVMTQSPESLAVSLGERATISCKVSEFMRGLMSRKDSIAWYQQKAGQPPKLLIYDNETRESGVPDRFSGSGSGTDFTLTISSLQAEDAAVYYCQQYDRLPLSFGGGTKVEIK,2.15 / 2.16 / n.d. / 1.70 / 1.72 / 2.60,2 of 18 (2.14)
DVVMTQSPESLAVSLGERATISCQLSGMTAHESVKKQNVAWYQQKAGQPPKLLIYERSTRGEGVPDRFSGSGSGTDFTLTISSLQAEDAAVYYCQQYNRLPLSFGGGTKVEIK,-0.02 / 0.01 / -0.23 / -0.36 / -0.24 / -0.01,0 of 18
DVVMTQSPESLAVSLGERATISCHLGLVTMLEEAVRNSVAWYQQKAGQPPKLLIYNNSTREEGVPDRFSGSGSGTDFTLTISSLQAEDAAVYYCQQYDRLPLSFGGGTKVEIK,n.d. / n.d. / n.d. / n.d. / n.d. / n.d.,1 of 18 (2.90)
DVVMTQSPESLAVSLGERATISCMINQLYNMGSFAINSVAWYQQKAGQPPKLLIYQASQRNEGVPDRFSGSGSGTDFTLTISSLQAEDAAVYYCQQYDRLPLIFGGGTKVEIK,1.43 / 1.07 / 0.74 / 1.57 / 1.26 / 1.08,0 of 18

Excerpt, the final 2 entries:

VL	replicates, log10 nM	signal with controls
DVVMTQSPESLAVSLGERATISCHLGLVTMLEEAVRNSVAWYQQKAGQPPKLLIYNNSTREEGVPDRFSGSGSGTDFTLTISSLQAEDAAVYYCQQYDRLPLSFGGGTKVEIK	n.d. / n.d. / n.d. / n.d. / n.d. / n.d.	1 of 18 (2.90)
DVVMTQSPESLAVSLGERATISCMINQLYNMGSFAINSVAWYQQKAGQPPKLLIYQASQRNEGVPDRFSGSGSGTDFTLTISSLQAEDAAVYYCQQYDRLPLIFGGGTKVEIK	1.43 / 1.07 / 0.74 / 1.57 / 1.26 / 1.08	0 of 18

Background: pairings of all light chain designs with three empty control strains gave a value in 4% of cases (median 2.64, 5th percentile 1.59). Values in that range, when seen in few replicates, are hard to tell from nonspecific mating. Also given: how often the same scFv was detected with the empty control strains, with their mean in brackets. A sequence measured in both rounds can read differently, since the two assays cover different ranges. The authors averaged sequences with at least three values out of six and counted those with two or fewer as poor binders. The parent sequence was in this pool as ten entries: three were never detected, three once, and four in most replicates, with averages from 0.34 to 2.37.